Measured values reported in patent EP3996814B1, “USE OF A HERBAL EXTRACT COMPRISING VERBASCOSIDE AND AUCUBIN FOR THE TREATMENT OF OSTEOARTHRITIS OF THE KNEE” (Labiotre S.r.l., priority 2019, dated 2021).

Key:
COX-1 mRNA = assay: RT-PCR analysis of COX-1 mRNA expression in LPS-stimulated neutrophils; format: cell-based, human; conditions: 5 µg/ml of LPS plus test substance 1%, 24 hours; untreated cells = 100 a.u.
COX-2 mRNA = assay: RT-PCR analysis of COX-2 mRNA expression in LPS-stimulated neutrophils; format: cell-based, human; conditions: 5 µg/ml of LPS plus test substance 1%, 24 hours; untreated cells = 100 a.u.

Cc1ccc(-c2cc(C(F)(F)F)nn2-c2ccc(S(N)(=O)=O)cc2)cc1 [Celecoxib] was tested. Which “COX-1 mRNA levels” value (COX-1 mRNA) did it give?
Its value is 116 ± 4 a.u.

And the “COX-2 mRNA levels” value (COX-2 mRNA)?
Its value is 283 ± 37 a.u.
